EP3397273B1

Legend:
[1] = molecular target: cation-independent mannose-6-phosphate receptor (CIMPR); assay: M6P receptor (CIMPR) plate binding assay
[2] = molecular target: cation-independent mannose-6-phosphate receptor (CIMPR); assay: CIMPR binding (method not given)
[3] = molecular target: cation-independent mannose-6-phosphate receptor (CIMPR); assay: CIMPR affinity chromatography, different production batches
[4] = molecular target: cation-independent mannose-6-phosphate receptor (CIMPR); assay: cell-based or functional assay
[5] = molecular target: cation-independent mannose-6-phosphate receptor (CIMPR); assay: CIMPR affinity chromatography, elution with free M6P gradient, GAA activity
[6] = molecular target: cation-independent mannose-6-phosphate receptor (CIMPR); assay: CIMPR affinity chromatography, fractions assayed for GAA activity

| Substance | Kd [1] [nM] | Kd [2] | percent CIMPR receptor binding [3] [%] | concentration saturating cellular receptors, fibroblast internalisation [4] [nM] | percent of rhGAA bound to CIMPR column (eluted with M6P) [5] [%] | uptake efficiency constant (Kuptake), fibroblast internalisation [4] [nM] | percent of rhGAA not bound to CIMPR column [6] [%] |
| --- | --- | --- | --- | --- | --- | --- | --- |
| ATB200 rhGAA (recombinant human acid α-glucosidase produced in CHO cell line GA-ATB-200) (from UniProt P10253 57-952) (enzyme) | 2 to 4 | 2.7 nM and 2.9 nM | 70 | 20 | – | – | – |
| Lumizyme® (alglucosidase alfa, conventional rhGAA) (from UniProt P10253 57-952) (enzyme) | – | – | – | 250 | 22 | 56 | 78 |
| Myozyme® (alglucosidase alfa, conventional rhGAA) (from UniProt P10253 57-952) (enzyme) | – | – | – | – | 27 | – | 73 |

“And” between values parts separate entries of the source, which are not always exact repeats. Equal entries are not always repeated.
